The source of these data is PubChem BioAssay AID1508649 (National Center for Advancing Translational Sciences (NCATS), 2021).

The entries are a selection whose mix differs from that of the whole data set. Records with an inconclusive call do not appear. The source made the active and inactive calls. The calls were made as follows: active = clear falling dose curves in both reporters; inconclusive = both reporters move, but less clearly or upward; inactive = either reporter flat; the % is the NLuc reporter signal.
% is scaled to controls: 0 for no effect and ±100 for the full control effect; potency is read from the fitted curve at half-maximal effect.

This experiment can be described thus: Cell-based coincidence reporter assay to measure PMP22 gene transcription in S16 Pmp22-F2sN cells - Primary screen. Conditions: S16 Pmp22-F2sN Schwann cells (luciferase reporters placed in the Pmp22 gene), FLuc/NLuc coincidence luminescence, 24 h; series mostly up to 57.5 µM; activity change, negative = inhibition: at the top concentration. From the text:
Assay Provider: Jim Inglese Ph.D. National Center for Advancing Translational Science, National Institutes of Health, Rockville, MD CMT is a heterogeneous group of neurological disorders that affect approximately 1 in 2,500 people. In particular, the most common form of CMT, CMT1A is genetically linked to the duplication of the PMP22 gene which leads to Schwann cell overexpression, thus manifesting itself as a typical case of dose-sensitive diseases. To identify small molecule compounds that can mediate the expression of PMP22 we developed a phenotypic assay screening strategy by utilizing genome editing techniques to construct Schwann cell lines containing novel reporter technology to monitor the transcriptional or translational regulation of PMP22. For high sensitivity we use a bioluminescent reporter system embedded in the 3' UTR of the PMP22 gene (S16(c9) Pmp22-F2sN) to identify compounds that inhibit gene expression. […] We can further discriminate the effect of all transcriptionally active molecules on PMP22 translation or stability with an assay that incorporates a short NLuc peptide (HiBiT) at the C-terminus of expressed PMP22 (S16(f8) PMP22-HiBiT) allowing alpha complementation and luminescence detection of membrane-associated PMP22 protein. These assays were screened against the NCATS Sytravon Library Collection. Miniaturization of these assays to 1536-well plate format for quantitative high throughput screening (qHTS) yielded rich data sets immediately from the qHTS assay (S16(c9) Pmp22-F2sN), when compared with data from a cell viability assay (Cell TiterGlo) to identify compounds that decreased the output signals through cellular toxicity to streamline the selection process of actives for subsequent characterization using the HiBiT assay (S16(f8) PMP22-HiBiT).
Cell-based coincidence reporter assay to measure PMP22 gene transcription in S16 Pmp22-F2sN cells PROTOCOL TABLE (format as described by Inglese J, Shamu CE and Guy RK. 2007) SEQUENCE No. (e.g., 1, 2, 3, etc.); […] (e.g., Cells, Incubation, Reagent, etc.); VALUE and DESCRIPTION. 1. Cells. Add 500-1,000 cells in 4 uL in growth media (DMEM High Glucose, No Phenol Red media + 10% heat-inactivated FBS + 1% Pen/Strep supplemented media) per well into Greiner 1536-well white/solid bottom high base, TC-treated plates. 2. Compounds. Library compounds and controls added at 23nL per well, transferred by Pin Tool. 3. Incubation. Incubate plates at 37C, 5% CO2, 95% RH for 24 h. 4. Reagent. Add 3.5uL Nano-Glo Dual-Luciferase Reporter Assay System reagent 1: Lysis and FLuc reagent per well of Greiner 1536-well plates. 5. Incubation. Incubate plates at room temperature for 10 min., protect from light. 6. Detector. FLuc luminescence measured using CCD-based camera (Viewlux). 7. Reagent. Add 3.5uL Nano-Glo Dual-Luciferase Reporter Assay System reagent 2: Stop&Glo reagent per well of Greiner 1536-well plates. 8. Incubation. Incubate plates at room temperature for 10 min., protect from light. 9. Detector. NLuc luminescence measured using CCD-based camera (Viewlux). NOTES (numbers refer to Sequence numbers above; values are from representative experiments) 6. Luminescence Read #1 (FLuc): Clear filter; Exposure = 10 sec, Gain = High, Speed = Slow, Binning = 2X 9. Luminescence Read #2 (NLuc): Clear filter; Exposure = 1 sec, Gain = High, Speed = Slow, Binning = 2X REFERENCES: 1. Inglese J, Shamu CE and Guy RK, Reporting data from high throughput screening of small molecule libraries, Nature Chemical Biology, 2007, 3(8): 438-441. doi.org/10.1038/nchembio0807-438 2. Yasgar A, Shinn P, Jadhav A, Auld DS, Michael S, Zheng W, Austin CP, Inglese J and Simeonov A, Compound Management for Quantitative High-Throughput Screening. J. Assoc. Lab. Auto., 2008, 13: 79-89. doi: 10.1016/j.jala.2007.12.004
For `COc1cc(C(=O)NCC2(N3CCOCC3)CCCCC2)cc(OC)c1OC`, the “activity change, negative = inhibition” value is inactive: 0.948%.
Still for that read-out and setting: the result for `CN(C)C1(CNC(=O)c2ccc(C(C)(C)C)cc2)CCCCC1` reads inactive: -16.7%.
Consider `Cc1ccccc1C(=O)NCC1(N(C)C)CCCCC1`, for which the “activity change, negative = inhibition” value is inactive: -21.2%.
For `CC(C)(C)c1ccc(C(=O)NCC2(N3CCOCC3)CCCCC2)cc1`, the Potency is active: 15 µM.
Regarding `O=C(NCC1(N2CCOCC2)CCCCC1)c1ccccc1[N+](=O)[O-]`, the “activity change, negative = inhibition” value was inactive: -42%.
As to `O=C(NCC1(N2CCOCC2)CCCCC1)c1ccc([N+](=O)[O-])cc1`, the “activity change, negative = inhibition” value was inactive: -13.1%.
Still for that read-out and setting: the result for `O=C(NCC1(N2CCOCC2)CCCCC1)c1ccccc1` reads inactive: -7.39%; that for `O=C(NCC1(N2CCOCC2)CCCCC1)c1ccccc1Br`, inactive: 0.029%.
Still for that read-out and setting: to `CCOc1ccc(C(=O)NCC2(N3CCOCC3)CCCCC2)cc1` belongs inactive: -12.5%; to `CCCOc1cccc(C(=O)NCC2(N3CCOCC3)CCCCC2)c1`, inactive: -14.4%.
